SMILES strings stand for the structures.

The species named for the assay is Homo sapiens. The assay can be described thus: Selectivity ratio of IC50 for human mPGES1-mediated PGF2alpha production to IC50 for mPGES1 in human A549 cells. Format: cell-based.
`Cn1c(Nc2c(F)cccc2Cl)nc2cc(C(=O)Nc3cccc(C(F)(F)F)c3)c3c(c21)CC(C)(C)O3`: the Ratio IC50 was 556.

With `CC1(C)Cc2c(c(C(=O)Nc3cc(C(F)(F)F)ccc3F)cc3nc(Nc4c(F)cccc4Cl)[nH]c23)O1`, the Ratio IC50 amounted to 740.

Regarding `CC1(C)Cc2c(c(C(=O)Nc3ccc(F)c(C(F)(F)F)c3)cc3nc(Nc4c(F)cccc4Cl)[nH]c23)O1`, the Ratio IC50 came to 461.
